In US6008245A, “Sulfonamide-substituted benzopyran derivatives, processes for their preparation, their use as a medicament, and pharmaceutical preparations comprising them” (priority 1997, dated 1999):

These compounds were tested against T1, human IsK protein (UniProt P15382+P70057) (assay: cell-based).
T1 construct: expressed in transfected cells; host or cells: Xenopus laevis oocytes injected with in vitro synthesized IsK RNA

SMILES | IC50 [nM]
CN([C@@H]1c2cc(OCCCC(F)(F)F)ccc2OC(C)(C)[C@H]1O)S(C)(=O)=O (racemic) [Example 13, (±)-trans-N-[3-Hydroxy-2,2-dimethyl-6-(4,4,4-trifluorobutoxy)-chroman-4-yl]-N-methyl-methanesulfonamide] | 200
CN([C@H]1c2cc(OCCCC(F)(F)F)ccc2OC(C)(C)[C@@H]1O)S(C)(=O)=O [Example 19, (3R,4S)-(+)-N-[3-Hydroxy-2,2-dimethyl-6-(4,4,4-trifluorobutoxy)chroman-4-yl]-N-methyl-methanesulfonamide] | 100
CN([C@@H]1c2cc(OCCCC(F)(F)F)ccc2OC(C)(C)[C@H]1O)S(C)(=O)=O [Example 20, (3S,4R)-(-)-N-[3-Hydroxy-2,2-dimethyl-6-(4,4,4-trifluorobutoxy)chroman-4-yl]-N-methyl-methanesulfonamide] | 400
